Reference: patent publication EP0072352B1, “Benzazepin-2-ones, process for their preparation, pharmaceutical preparations containing these compounds and the compounds for therapeutical use” (CIBA-GEIGY AG, priority 1981, dated 1983)

Sequences of proteins named here, by UniProt entry; tags and fusion partners are left off. Residues count along the entry.
UniProt P12822, 34-1310 limits assumed: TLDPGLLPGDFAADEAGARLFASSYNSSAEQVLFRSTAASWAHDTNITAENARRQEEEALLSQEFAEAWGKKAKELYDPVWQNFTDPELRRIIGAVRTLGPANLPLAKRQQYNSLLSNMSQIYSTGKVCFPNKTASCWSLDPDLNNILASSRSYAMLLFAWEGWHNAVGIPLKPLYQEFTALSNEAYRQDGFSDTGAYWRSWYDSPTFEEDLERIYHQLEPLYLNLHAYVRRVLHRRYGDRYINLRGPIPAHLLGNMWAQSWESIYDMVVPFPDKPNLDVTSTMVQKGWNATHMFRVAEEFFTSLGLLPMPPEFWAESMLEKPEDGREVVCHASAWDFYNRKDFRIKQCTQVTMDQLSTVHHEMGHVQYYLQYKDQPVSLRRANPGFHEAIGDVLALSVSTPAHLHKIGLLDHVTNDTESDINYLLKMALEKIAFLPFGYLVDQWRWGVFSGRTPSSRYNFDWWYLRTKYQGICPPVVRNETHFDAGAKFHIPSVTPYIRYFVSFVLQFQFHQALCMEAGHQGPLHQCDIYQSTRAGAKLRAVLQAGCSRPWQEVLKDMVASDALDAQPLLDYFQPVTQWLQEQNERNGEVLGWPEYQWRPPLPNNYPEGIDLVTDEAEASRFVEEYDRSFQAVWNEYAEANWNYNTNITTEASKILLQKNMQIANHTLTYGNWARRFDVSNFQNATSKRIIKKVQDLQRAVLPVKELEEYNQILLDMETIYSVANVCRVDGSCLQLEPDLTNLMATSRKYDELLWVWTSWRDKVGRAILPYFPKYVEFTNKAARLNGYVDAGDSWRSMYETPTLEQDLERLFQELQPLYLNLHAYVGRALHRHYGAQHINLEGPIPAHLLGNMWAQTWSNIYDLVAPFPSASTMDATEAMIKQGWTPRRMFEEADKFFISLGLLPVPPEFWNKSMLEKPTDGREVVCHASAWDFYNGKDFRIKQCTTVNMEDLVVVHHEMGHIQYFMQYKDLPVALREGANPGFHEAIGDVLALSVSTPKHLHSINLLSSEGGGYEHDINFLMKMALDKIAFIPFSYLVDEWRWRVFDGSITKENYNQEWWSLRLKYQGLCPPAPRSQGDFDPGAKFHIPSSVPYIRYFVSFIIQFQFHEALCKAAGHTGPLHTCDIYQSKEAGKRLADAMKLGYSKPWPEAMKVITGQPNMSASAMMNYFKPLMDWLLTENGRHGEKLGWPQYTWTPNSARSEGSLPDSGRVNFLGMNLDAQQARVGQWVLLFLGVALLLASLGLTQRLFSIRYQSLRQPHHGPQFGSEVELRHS

Columns and labels:
[1] = target: Angiotensin-umwandelnde Enzym (ACE) (Oryctolagus cuniculus, UniProt P12822); experiment: In vitro ACE inhibition (ACEI), rabbit lung tissue preparation, hippuryl-histidyl-leucine substrate, method of Cheung and Cushman; conditions: read-out: In vitro ACEI IC50, 30 min incubation at 37°, tested form: maleate
[2] = tested on: durch Angiotensin I (AI) hervorgerufene Blutdrucksteigerung; experiment: Inhibition of the angiotensin I (AI) induced blood pressure rise after intravenous administration of the test compound; conditions: i.v. Dosis 1.0 mg/kg; rat; mean inhibition within 30 min after administration; tested form: maleate
Description: Die Verbindungen der Erfindung zeigen nach intravenöser oder oraler Verabreichung eine hemmende Wirkung gegen die durch Angiotensin I hervorgerufene Blutdrucksteigerung auch an normotensiven Ratten. Das Angiotensin 1 wird durch das genannte Umwandlungsenzym zu der stark blutdrucksteigernden Substanz Angiotensin II hydrolysiert. Die Hemmung des genannten Enzyms blockiert die Bildung von Angiotensin II aus Angiotensin I. In dieser Weise wird die durch Angiotensin I provozierte Blutdrucksteigerung abgeschwächt.
Der entsprechende in-vivo-Test mit den intravenös verabreichten Verbindungen wird mit männlichen normotensiven Ratten, welche mit dem Natriumsalz der 5-Äthyl-5-(1-methylpropyl)-2-thiobarbitursäure narkotisiert sind, durchgeführt. Eine femorale Arterie und eine Wadenvene werden mit je einer Hohlnadel für die direkte Messung des Blutdrucks und für die intravenöse Verabreichung des Angiotensins I und einer erfindungsgemäßen Verbindung versehen. Nach der Stabilisierung des basalen Blutdrucks wird die Druckänderung nach drei, in 5-minütigen Intervallen, i. v. durchgeführten Reizungen mit 333 ng/kg Angiotensin I bestimmt. Solche Druckänderungen werden wieder nach 5,10,15, 30 und 60 Minuten nach intravenöser Verabreichung der zu prüfenden Verbindung bestimmt. Die letztgenannten Druckänderungen werden mit den Anfangswerten verglichen. […]

IC50 [1]: 10 µM
SMILES: CCOC(=O)CN1C(=O)[C@@H](N[C@@H](CCc2ccccc2)C(=O)OCC)CCc2ccccc21 (relative stereo)
% AI Hemmung [2]: 80%
